Among the data in PubChem BioAssay AID651661 (Broad Institute, 2012) are inhibition values, retold here.

The list shows a part of the results, in another mix than the full data. Activity calls are given as the source filed them.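 Rule for the calls: active = mean inhibition of at least 50% after viability correction, with every replicate also passing that limit; inconclusive = mean reaches 50% but only one of two replicates passes; inactive = the rest.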

The assay in a line: blockers of EWS/Fli transcriptional output – A673 cells, NR0B1 luciferase, luminescence, MLPCN library, primary screen (AID 651661).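 Note: firefly luciferase signal divided by Alamar Blue viability fluorescence both relative to DMSO.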 As to conditions: A673 NR0B1-luciferase reporter, viability-normalised; at 12.6 µM; active compounds read high.
The inhibition is the drop in the measured response relative to a control, in per cent. For the compound `CCC(=O)N(c1ccccc1)C1(COC)CCN(CCn2nnn(CC)c2=O)CC1`, the inhibition is inactive: -1.52%. `CCC(=O)N(c1ccccc1)C1(COC)CCN(CCc2cccs2)CC1`: the inhibition was inactive: -6.37%.
